Assay results as given in US7863415B2 (The Regents of the University of California, priority 2004, dated 2011).

Assay: Neuropathological and neurobehavioral effects of intracerebral/intrathecal amiloride infusion in rats
Conditions: amiloride infusion 276 pmol/24 h

N=C(N)NC(=O)c1nc(Cl)c(N)nc1N [Amiloride, 3,5-diamino-6-chloro-N-(diaminomethylene)pyrazinecarboxamide]
Animals with intermittent seizures: 3 of 8
Premature deaths: no premature deaths
